From published antibiotic growth screens (doi:10.1038/s41589-023-01349-8)
This is one part of the list.

Tested on: A. baumannii ATCC 17978
Experiment: relative growth (fraction of control); higher = less inhibition
Settings: 50 µM

Row | SMILES | relative growth
1 | C=CCC[C@H](Cc1ccc(F)cc1)C(=O)O[C@H](CNC(=O)[C@@H](CC=C)CC(=O)N[C@H](CO)Cc1ccccc1)c1ccccc1 | 1.12
2 | COc1ccc([C@@H](N)c2ccncc2)cc1 | 1.07
3 | CCOc1ccc(S(=O)(=O)[O-])c2cccnc12.[Na+] | 0.964
4 | COc1c(O)cccc1O | 1
5 | O=C(C[C@H]1C=C[C@H](NC(=O)c2cccnc2)[C@H](CO)O1)NCCN1CCCCC1 | 1.05
6 | O=C(C[C@H]1CC[C@H](NS(=O)(=O)c2ccc(F)cc2)[C@H](CO)O1)N1CCC(Cc2ccccc2)CC1 | 0.949
7 | O=C(O)C[C@@H]1C=C[C@@H](NC(=O)c2ccncc2)[C@H](CO)O1 | 1.09
8 | CC(=O)Nc1ncc([N+](=O)[O-])s1 | 0.705
9 | O=C(C[C@H]1C=C[C@H](NS(=O)(=O)c2ccc(F)cc2)[C@@H](CO)O1)N1CCC(Cc2ccccc2)CC1 | 0.637
10 | C[C@@H]1CN([C@@H](C)CO)S(=O)(=O)c2ccc(C#Cc3cccc(F)c3)cc2O[C@H]1CN(C)C(=O)CN1CCOCC1 | 0.662
11 | O=C(O)C(O)C(O)C(O)C(O)C(=O)O (centres undefined) | 0.912
12 | CCOC(=O)c1cccc(N)c1.CS(=O)(=O)O | 1.26
13 | CC(C)NC(=O)N[C@@H]1C=C[C@H](CC(=O)O)O[C@H]1CO | 0.931
14 | CSc1nc(=O)c(C)n[nH]1 | 1.01
15 | COc1c2ccoc2nc2c(OC)c(OCC(O)C(C)(C)O)ccc12 (centres undefined) | 0.958
16 | CC(C)C[C@@H]1NC(=O)[C@@H]2C[C@H](C(=O)NCCCCCCN(C)C)[C@H](c3cccc(OCCO)c3)N2C1=O | 1
17 | COC(=O)Cc1c(C)[nH]c(=S)[nH]c1=O | 0.972
18 | CCCC#Cc1cnc2c(c1)C(=O)N([C@@H](C)CO)C[C@@H](C)[C@H](CN(C)S(=O)(=O)c1cccc(OC)c1)O2 | 0.73
19 | COC(CNC(=O)C1CCN(S(=O)(=O)c2cccc3nsnc23)CC1)OC | 1.17
20 | OC[C@H]1O[C@@H](O[C@H]2[C@H](O)[C@@H](O)[C@@H](O)O[C@@H]2CO)[C@H](O)[C@@H](O)[C@@H]1O | 1.02
21 | NC[C@H](c1cccs1)N1CCCCCC1 | 0.893
22 | COc1cccc(NC(=O)N[C@H]2CC[C@H](CC(=O)N3CCOCC3)O[C@@H]2CO)c1 | 0.942
23 | CC[C@H]1OC(=O)[C@H](C)[C@@H](O[C@H]2C[C@@](C)(OC)[C@@H](O)[C@H](C)O2)[C@H](C)[C@@H](O[C@@H]2O[C@H](C)C[C@H](N(C)C)[C@H]2O)[C@](C)(O)C[C@@H](C)/C(=N\OCOCCOC)[C@H](C)[C@@H](O)[C@]1(C)O | 0.198
24 | CC/C=C\C/C=C\C/C=C\C/C=C\C/C=C\CCCC(=O)OCC [OMEGA-3-ACID ESTERS (EPA shown)] | 1.06
25 | CCOC(=O)C(=O)N(C)CC(OC)OC | 0.925
26 | CSc1scc(-c2cc(Cl)cc(Cl)c2)c1C#N | 1.11
27 | c1ccc(Nc2ncnc3cc(-c4ccccc4)sc23)cc1 | 1.05

Row | SMILES | relative growth
28 | O=C(O)CCCN=C1NC(=O)CC(=O)N1 | 0.999
29 | Cc1c(OCC(F)(F)F)ccnc1CS(=O)c1nc2ccccc2[nH]1 (centres undefined) | 1.1
30 | Nc1nc(=O)c2nc(CNc3ccc(C(=O)N[C@@H](CCC(=O)O)C(=O)O)cc3)cnc2[nH]1 | 0.996
31 | CCC(=O)O[C@H]1[C@H](O[C@@H]2[C@@H](C)[C@H](O[C@H]3C[C@@](C)(OC)[C@@H](O)[C@H](C)O3)[C@@H](C)C(=O)O[C@H](CC)[C@@](C)(O)[C@H](O)[C@@H](C)C(=O)[C@H](C)C[C@@]2(C)O)O[C@H](C)C[C@@H]1N(C)C.CCCCCCCCCCCCOS(=O)(=O)O | 0.898
32 | C[C@H](CO)N1C[C@H](C)[C@@H](CN(C)C(=O)c2ccc3c(c2)OCO3)Oc2cc(-c3cncnc3)ccc2S1(=O)=O | 1.04
33 | COc1cccc(NC(=O)N(C)C[C@H]2Oc3ncc(Br)cc3C(=O)N([C@H](C)CO)C[C@H]2C)c1 | 1.09
34 | C=CC[C@@H](CC(=O)N(CCO)Cc1ccccc1)C(=O)N[C@@H](COC(=O)[C@H](CC=C)Cc1ccc(F)cc1)Cc1c[nH]c2ccccc12 | 1.16
35 | CC(=O)N[C@@H](CC(C)C)C(=O)O | 1.08
36 | Cc1ccccc1C(=O)Nc1ccc(C(=O)N2CCC[C@@H](O)c3cc(Cl)ccc32)c(C)c1 | 1.21
37 | COC(=O)CC1(N)CCCCC1 | 0.998
38 | COCC#Cc1ccc2c(c1)O[C@@H](CN(C)S(=O)(=O)c1cccc(OC)c1)[C@@H](C)CN([C@H](C)CO)S2(=O)=O | 0.864
39 | Cn1nnnc1SCC1=C(C(=O)[O-])N2C(=O)C(NC(=O)C(O)c3ccccc3)C2SC1.[Na+] (centres undefined) | 1
40 | NC[C@@H]1CC[C@@H](N)[C@@H](O[C@H]2[C@H](O)[C@@H](O[C@H]3O[C@H](CO)[C@@H](O)[C@H](N)[C@H]3O)[C@H](N)C[C@@H]2N)O1 | 1.09
41 | CN1CCN(C(=O)C[C@@H]2CC[C@@H]3[C@H](COC[C@H](O)CN3Cc3ccc4c(c3)OCO4)O2)CC1 | 0.984
42 | Cl.N=C(N)NC(=O)c1nc(Cl)c(N)nc1N | 1.04
43 | CCCNC(=O)Cc1nnc[nH]1 | 1.17
44 | COc1cc(C)c(/C=C/C=C/C=C/C=C/C(=O)O)c(C)c1C | 1.13
45 | CCOC(=O)COc1ccc(-c2nn[nH]n2)cc1 | 1.07
46 | CC(C)NC(=O)Cn1ccc([N+](=O)[O-])n1 | 1.04
47 | COCC(=O)Nc1ccc2c(c1)OC[C@H](C)N(Cc1cccc(F)c1)C[C@@H](C)[C@@H](OC)CN(C)C2=O | 1.04
48 | NCC[C@@H]1CC[C@@H](NC(=O)c2ccccc2F)[C@H](CO)O1 | 1
49 | O=C(c1ccc(Cl)cc1)c1coc2c1cc(O)c1ccccc12 | 1.21
50 | C[C@H](CO)N1C[C@H](C)[C@@H](CN(C)S(=O)(=O)c2cn(C)cn2)Oc2cc(C#Cc3ccc(F)cc3)ccc2S1(=O)=O | 0.88
51 | Nc1nnc(SCC(=O)NC[C@H]2CCCO2)[nH]1 | 0.998
52 | O=C(C[C@@H]1CC[C@@H]2[C@H](COC[C@H](O)CN2S(=O)(=O)c2cccc(Cl)c2)O1)NCc1ccncn1 | 0.886
53 | O=C(C[C@H]1C=C[C@H](NC(=O)c2ccc(F)cc2)[C@H](CO)O1)NCc1ccncn1 | 1.2
54 | COc1cc2ccc(=O)oc2c(OC)c1OC | 1.03
